Values of other authors as cited in US20130202594A1, “ALK1 Antagonists and Their Uses in Treating Renal Cell Carcinoma” (priority 2012, published 2013).

System: RCC
Conditions: high-dose intravenous; cited from earlier work

Substance: IL-2: immunostimulatory cytokine
- complete remission rate: 6-8%
- cure rate: approximately 5%
- response rate: 15-20%
